Measured values from patent US20130017265A1, “PARTICLES FOR MULTIPLE AGENT DELIVERY” (MASSACHUSETTS INSTITUTE OF TECHNOLOGY, priority 2009, published 2013).

Experiment: Cyclic voltammetry of Poly-Pt (Pt(IV)/Pt(II) couple)
Assay type: physicochemical
Settings: pH 7.4, 25° C., irreversible cyclic voltammetric response

Q: Which “reduction potential, Pt(IV)/Pt(II) couple” value does the source give for “c,c,t[Pt(NH3)Cl2(OH)(succinate)] [Pt-Monosuccinate]” here?
A: The value was −0.850 V vs Ag/AgCl.
